Reported water solubility values for industrial, environmental and drug-like chemicals

Values as listed in the OPERA 2.9 repository of K. Mansouri.

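OPERA's authors assembled the values from existing databases and did not measure them anew. The files give a single number for a compound and property, which may rest on several reports. How each value was measured is not recorded, so precision varies. Where a salt, mixture or single isomer is drawn, the source does not say that exactly this form was tested. Unmarked limits or estimates from the upstream databases cannot be ruled out.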

Water solubility is log10 of mol/L, nominally at 25 °C; higher is more soluble.
Cells with "–" have no entry in this list.

SMILES | name | log solubility (log10 mol/L)
CC[C@@H](CO)NC(=O)[C@@H]1C=C2c3cccc4c3c(cn4C)C[C@H]2N(C)C1 | Methysergide | -3.198
CC(C)=CC1C(C(=O)OCc2ccc(C)cc2C)C1(C)C (stereo not given) | Dimethrin | -6.9
S=P(Oc1ccccc1)(Oc1ccccc1)Oc1ccccc1 | Phosphorothioic acid, O,O,O-triphenyl ester | -7.094
CC(=O)O[C@H]1CC[C@H]2[C@@H]3CCC4CC(=O)CC[C@]4(C)[C@H]3CC[C@]12C (stereo in doubt) | 17 beta-Acetoxy-5 alpha-androstan-3-one | -5.045
CCCCCCCCCCCCOP(=S)([S-])OCCCCCCCCCCCC.CCCCCCCCCCCCOP(=S)([S-])OCCCCCCCCCCCC.[Zn+2] | – | -3.853
CCOC(=O)Cc1ccccc1 | Ethyl phenylacetate | -2.34
O=c1[nH]c2cc(Cl)ccc2n1C1CCNCC1 | 5-Chloro-1-(4-piperidyl)-1H-benzimidazol-2(3H)-one | -2.661
CNC(=O)Oc1cc(C)c(C)c(C)c1 | 3,4,5-Trimethylphenyl methylcarbamate | -3.205
COc1ccc([N+](=O)[O-])cc1[O-].[Na+] | Sodium 2-methoxy-5-nitrophenolate | -2.02
N[C@@H]1C[C@H]1c1ccccc1 | Tranylcypromine | -1.951
OC1(c2ccc(Cl)cc2)c2ccccc2C2=NCCN21 (stereo not given) | Mazindol | -3.311
N#C[C@H]1CCC[C@@H]2OC[C@H](c3ccccc3)N21 | (+)-2-Cyano-6-phenyloxazolopiperidine | -3.194
CC(CC(=O)OOC(C)(C)C)CC(C)(C)C (stereo not given) | – | -4.21
COc1cc(OC)nc(NC(=O)NS(=O)(=O)c2ncccc2C(F)(F)F)n1 | Flazasulfuron | -2.29
CCCCC(CC)C(=O)OOC(C)(C)CCC(C)(C)OOC(=O)C(CC)CCCC (stereo not given) | 2,5-Dimethyl-2,5-bis(2-ethylhexanoylperoxy)hexane | -7.188
C[C@H](Oc1ccc(Oc2nc3ccc(Cl)cc3o2)cc1)C(=O)N(C)c1ccccc1F | Metamifop | -5.81
CSc1ccc(C(=O)C(C)(C)N2CCOCC2)cc1 | 2-Methyl-4'-(methylthio)-2-morpholinopropiophenone | -4.193
CCC(C)I (stereo not given) | 2-Iodobutane | -2.943
CC(C)OC(=O)OOC(C)(C)C | tert-Butylperoxy isopropyl carbonate | -1.904
CC(=O)OC1=CC[C@H]2[C@@H]3CC[C@H]4CC=CC[C@]4(C)[C@H]3CC[C@]12C | (5alpha)-Androsta-2,16-dien-17-yl acetate | -7.568
C[C@H]1CC(=O)C=C2CC[C@@H]3[C@H](CC[C@]4(C)C(=O)CC[C@@H]34)[C@]21C | (1alpha)-1-Methylandrost-4-ene-3,17-dione | -3.958
CC(=O)O.CC(=O)O.CC(=O)O.N=C(N)NCCCCCCCCNCCCCCCCCNC(=N)N | Iminoctadine triacetate | 0.155
CCCCCCCCCCCC#N | n-Undecyl cyanide | -5.29
COC12C[C@@H](CO)CN(C)[C@@H]1Cc1cn(C)c3cccc2c13 (some centres not stated) | (10-Methoxy-1,6-dimethylergolin-8-yl)methanol | -2.828
Brc1ccc(Oc2c(Br)cc(Br)cc2Br)c(Br)c1 | 2,2',4,4',6-Pentabromodiphenyl ether | -7.084
CC(C)CC(C)OP(=S)([S-])OC(C)CC(C)C.CC(C)CC(C)OP(=S)([S-])OC(C)CC(C)C.[Zn+2] (stereo not given) | – | -3.56
C[C@]12CCC(=O)C=C1CC[C@@H]1[C@@H]2C(=O)C[C@]2(C)C(=O)CC[C@@H]12 | – | -3.48
O=C(NC(=O)c1c(F)cccc1F)Nc1ccc(CON=C(c2ccc(Cl)cc2)C2CC2)cc1 | Flucycloxuron | -8.685
CC[C@H]1CN2CC[C@H]1C[C@@H]2[C@@H](O)c1ccnc2ccccc12 | Hydrocinchonine | -2.63
O=S(=O)(O)C(F)(F)C(F)(F)C(F)(F)C(F)(F)F | Perfluorobutanesulfonic acid | -2.77
COS(=O)(=O)c1ccc(C)cc1 | Methyl toluene-4-sulfonate | -2.333
COC(C)(C)CC(C)(C#N)N=NC(C)(C#N)CC(C)(C)OC (stereo not given) | – | -2.548
CCNNCC | 1,2-Diethylhydrazine | -0.224
O=C1CN=C(c2ccccc2)c2cc(Cl)ccc2N1CC(F)(F)F | Halazepam | -5.317
CC(Cl)(Cl)C(=O)[O-].[Na+] | Dalapon-sodium | 0.581
O=C1OC(=O)c2c(Br)c(Br)c(Br)c(Br)c21 | 4,5,6,7-Tetrabromo-1,3-Isobenzofurandione | -3.436
C[C@]12CC[C@@H]3c4ccc(OC(=O)N(CCCl)CCCl)cc4CC[C@H]3[C@@H]1CC[C@@H]2O | Estramustine | -6.058
CCC(=O)O[C@](Cc1ccccc1)(c1ccccc1)[C@H](C)CN(C)C | Propoxyphene | -4.984
Clc1nc(Cl)c(Cl)c(Cl)c1Cl | Pentachloropyridine | -4.471
O=[N+]([O-])Nc1ccccc1 | N-Nitroaniline | -2
CNC(=O)c1cc(Cl)cc(C)c1NC(=O)c1cc(Br)nn1-c1ncccc1Cl | Chlorantraniliprole | -5.68
C[C@@H](Cc1ccccc1)NC(=O)[C@@H](N)CCCCN | Lisdexamfetamine | -3.478
COc1ncc(F)c2nc(S(=O)(=O)Nc3c(F)cccc3F)nn12 | Florasulam | -1.75
BrCCCCCCBr | 1,6-Dibromohexane | -3.813
Cc1cccc(C)c1N(Cn1cccn1)C(=O)CCl | Metazachlor | -2.79
CCCCOC(=O)CC(SP(=S)(OCCC)OCCC)C(=O)OCCCC (stereo not given) | – | -6.279
CO/C=C(/C(=O)OC)c1ccccc1COc1cc(C(F)(F)F)nc(OC(C)C)n1 | Fluacrypyrim | -6.09
O=C(O)C(F)(F)C(F)(F)C(F)(F)C(F)(F)C(F)(F)F | Perfluorohexanoic acid | -4.03
O=c1[nH]c2ccccc2n1C1CCN(CCCC(c2ccc(F)cc2)c2ccc(F)cc2)CC1 | Pimozide | -4.66
O=C(NC(=O)c1c(F)cccc1F)Nc1cc(Cl)c(OC(F)(F)C(F)C(F)(F)F)c(Cl)c1F (stereo not given) | Noviflumuron | -6.436

7 of these entries, quoted again:

| SMILES | name | log solubility (log10 mol/L) |
|---|---|---|
| CC[C@@H](CO)NC(=O)[C@@H]1C=C2c3cccc4c3c(cn4C)C[C@H]2N(C)C1 | Methysergide | -3.198 |
| CC(C)OC(=O)OOC(C)(C)C | tert-Butylperoxy isopropyl carbonate | -1.904 |
| CC[C@H]1CN2CC[C@H]1C[C@@H]2[C@@H](O)c1ccnc2ccccc12 | Hydrocinchonine | -2.63 |
| Brc1ccc(Oc2c(Br)cc(Br)cc2Br)c(Br)c1 | 2,2',4,4',6-Pentabromodiphenyl ether | -7.084 |
| CC(C)=CC1C(C(=O)OCc2ccc(C)cc2C)C1(C)C (stereo not given) | Dimethrin | -6.9 |
| S=P(Oc1ccccc1)(Oc1ccccc1)Oc1ccccc1 | Phosphorothioic acid, O,O,O-triphenyl ester | -7.094 |
| CC(=O)O.CC(=O)O.CC(=O)O.N=C(N)NCCCCCCCCNCCCCCCCCNC(=N)N | Iminoctadine triacetate | 0.155 |